Experimental data from patent publication US11339120B2, “Phenyl derivatives as cannabinoid receptor 2 agonists” (priority 2015, dated 2022).

Amino acid sequences for entries named in this document (tags omitted).
UniProt P21554, whole entry: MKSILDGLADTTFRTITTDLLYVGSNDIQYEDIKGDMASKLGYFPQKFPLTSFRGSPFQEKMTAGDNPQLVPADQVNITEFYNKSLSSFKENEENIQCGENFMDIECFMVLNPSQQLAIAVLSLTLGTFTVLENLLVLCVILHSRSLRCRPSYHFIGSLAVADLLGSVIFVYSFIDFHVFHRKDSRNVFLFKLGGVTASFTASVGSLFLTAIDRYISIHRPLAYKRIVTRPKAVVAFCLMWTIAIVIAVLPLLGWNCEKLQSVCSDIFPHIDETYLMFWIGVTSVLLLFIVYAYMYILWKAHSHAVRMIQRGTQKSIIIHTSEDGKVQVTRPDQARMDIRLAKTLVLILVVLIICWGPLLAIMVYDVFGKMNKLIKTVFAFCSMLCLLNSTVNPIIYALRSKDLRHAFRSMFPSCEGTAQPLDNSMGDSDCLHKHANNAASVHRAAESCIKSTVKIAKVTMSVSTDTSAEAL
UniProt P34972, whole entry: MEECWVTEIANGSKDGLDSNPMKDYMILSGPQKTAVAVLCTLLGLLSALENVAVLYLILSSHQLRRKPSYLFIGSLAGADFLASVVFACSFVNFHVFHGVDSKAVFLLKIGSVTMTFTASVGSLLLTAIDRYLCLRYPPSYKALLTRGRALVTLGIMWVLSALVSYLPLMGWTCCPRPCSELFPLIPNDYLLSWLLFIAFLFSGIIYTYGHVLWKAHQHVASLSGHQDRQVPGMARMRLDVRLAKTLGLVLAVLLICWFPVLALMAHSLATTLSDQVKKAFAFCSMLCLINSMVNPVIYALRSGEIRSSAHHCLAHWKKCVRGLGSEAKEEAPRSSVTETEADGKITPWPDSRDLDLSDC

Columns and labels:
human CB1 receptors = human CB1 receptors (Homo sapiens, UniProt P21554); assay: functional cAMP assay, CHO cells expressing human CB1; type: cell-based; conditions: read-out: Human CB1 EC50
Procedure: (§1) CHO cells expressing human CB1 or CB2 receptors are seeded 17-24 hours prior to the experiment 50.000 cells per well in a black 96 well plate with flat clear bottom (Corning Costar #3904) in DMEM (Invitrogen No. 31331), 1×HT supplement, with 10% fetal calf serum and incubated at 5% CO2 and 37° C. in a humidified incubator. The growth medium was exchanged with Krebs Ringer Bicarbonate buffer with 1 mM IBMX and incubated at 30° C. for 30 min. Compounds were added to a final assay volume of 100 μl and incubated for 30 min at 30° C. […] The time-resolved energy transfer is measured by a TRF reader (Evotec Technologies GmbH), equipped with a ND:YAG laser as excitation source. The plate is measured twice with the excitation at 355 nm and at the emission with a delay of 100 ns and a gate of 100 ns, total exposure time 10 s at 730 (bandwidth 30 nm) or 645 nm (bandwidth 75 nm), respectively. The FRET signal is calculated as follows: FRET=T730-Alexa730-P(T645-B645) with P=Ru730-B730/Ru645-B645, where T730 is the test well measured at 730 nM, T645 is the test well measured at 645 nm, B730 and B645 are the buffer controls at 730 nm and 645 nm, respectively. cAMP content is determined from the function of a standard curve spanning from 10 μM to 0.13 nM cAMP.
(§2) EC50 values were determined using Activity Base analysis (ID Business Solution, Limited). […]

human CB2 receptors = human CB2 receptors (Homo sapiens, UniProt P34972); assay: functional cAMP assay, CHO cells expressing human CB2; type: cell-based; conditions: read-out: Human CB2 EC50
Procedure: as §1, §2

Cc1nc(C(NC(=O)c2ccc(C3CC3)c(OCCF)c2)C2(C)COC2)no1 (centres unmarked)
EC50 (human CB1 receptors): > 10000 nM
EC50 (human CB2 receptors): 506 nM
